From publication PMC4507497 (Chemistry & biology, 2015)

Sequences of proteins named here, by UniProt entry; tags and fusion partners are left off. A change or cut given only in a name is not applied to a line headed by its entry.
UniProt P35372, whole entry: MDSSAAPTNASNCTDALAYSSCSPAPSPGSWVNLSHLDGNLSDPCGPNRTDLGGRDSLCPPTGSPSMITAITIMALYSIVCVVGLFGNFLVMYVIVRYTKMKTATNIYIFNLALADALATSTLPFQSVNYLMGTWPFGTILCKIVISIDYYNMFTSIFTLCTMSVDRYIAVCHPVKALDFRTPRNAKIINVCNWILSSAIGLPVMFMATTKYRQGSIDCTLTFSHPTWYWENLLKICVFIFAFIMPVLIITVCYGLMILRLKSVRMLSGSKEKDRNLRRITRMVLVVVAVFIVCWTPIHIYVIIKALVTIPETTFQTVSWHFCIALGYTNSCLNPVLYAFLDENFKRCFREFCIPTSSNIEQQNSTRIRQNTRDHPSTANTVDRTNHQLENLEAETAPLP
UniProt P41145: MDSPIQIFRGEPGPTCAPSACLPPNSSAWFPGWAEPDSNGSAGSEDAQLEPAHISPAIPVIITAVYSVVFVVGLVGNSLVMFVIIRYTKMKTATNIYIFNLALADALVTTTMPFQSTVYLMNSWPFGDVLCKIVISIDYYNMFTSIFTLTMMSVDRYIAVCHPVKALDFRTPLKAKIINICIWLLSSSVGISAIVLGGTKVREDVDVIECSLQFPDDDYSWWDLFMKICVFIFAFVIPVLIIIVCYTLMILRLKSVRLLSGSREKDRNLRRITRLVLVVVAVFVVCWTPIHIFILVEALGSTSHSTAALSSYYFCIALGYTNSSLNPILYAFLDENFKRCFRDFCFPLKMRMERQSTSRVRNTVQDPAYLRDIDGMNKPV
UniProt P41143, whole entry: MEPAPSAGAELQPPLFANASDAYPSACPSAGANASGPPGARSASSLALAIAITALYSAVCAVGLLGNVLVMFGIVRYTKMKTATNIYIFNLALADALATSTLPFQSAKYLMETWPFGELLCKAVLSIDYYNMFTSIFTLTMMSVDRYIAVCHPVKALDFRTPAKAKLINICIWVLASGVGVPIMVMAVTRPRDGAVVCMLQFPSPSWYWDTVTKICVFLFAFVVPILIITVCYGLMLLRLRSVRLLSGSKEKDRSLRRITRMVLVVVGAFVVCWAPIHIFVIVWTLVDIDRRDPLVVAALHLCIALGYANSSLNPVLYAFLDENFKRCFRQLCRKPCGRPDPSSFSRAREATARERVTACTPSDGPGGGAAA

Columns and labels:
Human MOR (hMOR) = Human MOR (hMOR) (Homo sapiens, UniProt P35372); assay: cell-based
Human KOR = Human KOR (Homo sapiens, UniProt P41145); assay: cell-based
hMOR = hMOR (Homo sapiens, UniProt P35372); assay: Competition binding with radiolabeled diprenorphine, hMOR
h-rpMOR-wt = assay: Competition binding with radiolabeled diprenorphine, h-rpMOR-wt; parameters: species or system human / Rana pipiens; conditions: Table 3, [3H]-diprenorphine competition
h-rpMOR-E3h = assay: Competition binding with radiolabeled diprenorphine, h-rpMOR-E3h; parameters: species or system human / Rana pipiens; conditions: Table 3, [3H]-diprenorphine competition
Human DOR = Human DOR (Homo sapiens, UniProt P41143); assay: cell-based

Compound	EC50 (Human MOR (hMOR); EC50)	EC50 (Human MOR (hMOR); log EC50 ±SEM)	EC50 (Human KOR; EC50)	EC50 (Human KOR; log EC50 ±SEM)	Ki (hMOR)	Ki (h-rpMOR-wt)	Ki (h-rpMOR-E3h)	EC50 (Human DOR; EC50)	EC50 (Human DOR; log EC50 ±SEM)
CC(C)C[C@@H](NC(=O)[C@H](Cc1ccccc1)NC(=O)CNC(=O)[C@@H](C)NC(=O)[C@@H](N)Cc1ccc(O)cc1)C(=O)O [DADLE, [D-Ala^2,D-Leu^5]-enkephalin]	14 nM	13.8 nM	3100 nM	3160 nM	–	–	–	–	–
C[C@@H](NC(=O)[C@@H](N)Cc1ccc(O)cc1)C(=O)N[C@@H](Cc1ccccc1)C(=O)NCC(=O)N[C@@H](Cc1ccc(O)cc1)C(=O)N1CCC[C@H]1C(=O)N[C@@H](CO)C(N)=O [Dermorphin]	6.5 nM and 5.9 nM	6.31 nM	–	–	50 nM	1230 nM	1410 nM	–	–
CC(C)C[C@H](NC(=O)[C@H](Cc1ccccc1)NC(=O)CNC(=O)CNC(=O)[C@@H](N)Cc1ccc(O)cc1)C(=O)N[C@@H](CCCN=C(N)N)C(=O)N[C@@H](CCCN=C(N)N)C(=O)N[C@@H](CCC(N)=O)C(=O)N[C@@H](Cc1ccccc1)C(=O)N[C@@H](CCCCN)C(=O)N[C@H](C(=O)N[C@H](C(=O)N[C@H](C(=O)O)[C@@H](C)O)C(C)C)C(C)C [Dynorphin B]	900 nM	794 nM	25 nM	25.1 nM	–	–	–	–	–
CC(C)[C@H](NC(=O)[C@H](CC(=O)O)NC(=O)[C@H](Cc1ccccc1)NC(=O)[C@@H](C)NC(=O)[C@@H](N)Cc1ccc(O)cc1)C(=O)N[C@H](C(=O)NCC(N)=O)C(C)C [Deltorphin C, Tyr-D-Ala-Phe-Asp-Val-Val-Gly-NH2]	620 nM	631 nM	–	–	–	–	–	0.4 nM	0.437 nM

Values joined by “and” are separate entries in the source; they are usually repeats but may differ in a detail not shown here. Equal entries are not always repeated.
